From BigSolDB 2.1

CCCc1nn(C)c2c(=O)[nH]c(-c3cc(S(=O)(=O)N4CCN(C)CC4)ccc3OCC)nc12.O=C(O)CC(O)(CC(=O)O)C(=O)O
solubility (mole fraction)
Details | 293.2 K | 298.2 K | 303.2 K | 308.2 K | 313.2 K
in NMP | 0.05 | 0.062 | 0.07 | 0.078 | 0.0866
in isopropanol | 5.59e-05 | 7e-05 | 8.78e-05 | 0.000104 | 0.000132
in propylene glycol | 0.000391 | 0.000424 | 0.00045 | 0.000469 | –
in water | 0.000102 | 0.000125 | 0.000148 | 0.000174 | 0.000205
